Laboratory results as given in article PMC12044326 (Clinical Pharmacology in Drug Development, 2025).

Protein sequences, listed by entry. Tags and fused reporters are not part of them. Residues count along the entry.
UniProt P08684, 2-503: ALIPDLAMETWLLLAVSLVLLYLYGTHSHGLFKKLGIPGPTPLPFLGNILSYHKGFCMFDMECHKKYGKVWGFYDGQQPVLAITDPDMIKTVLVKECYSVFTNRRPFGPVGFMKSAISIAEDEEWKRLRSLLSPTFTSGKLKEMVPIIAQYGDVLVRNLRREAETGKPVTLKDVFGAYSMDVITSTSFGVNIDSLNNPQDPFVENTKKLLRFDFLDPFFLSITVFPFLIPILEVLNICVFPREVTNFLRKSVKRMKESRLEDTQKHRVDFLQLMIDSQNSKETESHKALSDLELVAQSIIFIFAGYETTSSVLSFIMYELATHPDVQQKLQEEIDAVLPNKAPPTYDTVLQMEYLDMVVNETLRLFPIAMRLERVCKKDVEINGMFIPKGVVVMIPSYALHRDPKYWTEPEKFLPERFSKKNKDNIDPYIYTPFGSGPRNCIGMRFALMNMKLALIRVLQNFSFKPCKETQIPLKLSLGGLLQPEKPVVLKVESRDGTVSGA

Assays:
CYP3A [1] = molecular target: T1, CYP3A (Homo sapiens, UniProt P08684); details: human liver microsomes
[2] = PBPK simulation of soticlestat PK after single and multiple doses; parameters: species or system human; details: arithmetic means
Description: All PBPK modeling and simulation used the Simcyp v20 Population‐based Simulator (Simcyp Ltd, a Certara Company, Sheffield, UK). The modeling was split into 4 parts: development, refinement, verification, and application (Figure 1). The studies contributing to the model, which phase of model development/validation the data were used for, the number of individuals with available data from each study, the number of PK data points available from each study, and the number of PK datapoints below the lower limit of quantification (LLOQ) from each study are presented in Table S1. […] No additional data points were excluded. Predictions of plasma drug concentration–time profiles, clearance, and DDIs were performed in the Simcyp Simulator using a population of virtual individuals. In model development, refinement, and verification, the proportion of female participants, the number of volunteers, and the volunteer age range were set to be the same as in the clinical studies.

CYP3A [3] = molecular target: T1, CYP3A; details: cited from earlier work
in vitro = in vitro ADME
Description: […]. […] […]. […] […]

UGT2B4 = molecular target: T2, UGT2B4 (Homo sapiens, UniProt P06133); details: cultured primary hepatocytes; cited from earlier work
T2 sequence (P06133 24-528): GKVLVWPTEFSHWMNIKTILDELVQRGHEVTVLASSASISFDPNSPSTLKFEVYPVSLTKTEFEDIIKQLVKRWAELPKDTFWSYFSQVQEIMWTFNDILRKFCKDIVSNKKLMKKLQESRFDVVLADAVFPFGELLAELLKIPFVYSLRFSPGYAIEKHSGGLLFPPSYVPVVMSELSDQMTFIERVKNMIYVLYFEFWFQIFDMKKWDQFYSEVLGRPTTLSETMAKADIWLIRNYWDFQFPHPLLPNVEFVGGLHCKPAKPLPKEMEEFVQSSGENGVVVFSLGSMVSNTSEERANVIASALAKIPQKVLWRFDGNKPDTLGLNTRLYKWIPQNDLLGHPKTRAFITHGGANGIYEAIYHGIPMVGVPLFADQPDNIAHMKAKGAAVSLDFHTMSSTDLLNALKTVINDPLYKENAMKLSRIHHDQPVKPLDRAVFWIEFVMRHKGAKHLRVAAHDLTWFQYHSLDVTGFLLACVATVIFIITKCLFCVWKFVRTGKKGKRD

UGT1A9 = molecular target: T3, UGT1A9 (Homo sapiens, UniProt O60656); details: cultured primary human hepatocytes; cited from earlier work
T3 sequence (O60656 26-530): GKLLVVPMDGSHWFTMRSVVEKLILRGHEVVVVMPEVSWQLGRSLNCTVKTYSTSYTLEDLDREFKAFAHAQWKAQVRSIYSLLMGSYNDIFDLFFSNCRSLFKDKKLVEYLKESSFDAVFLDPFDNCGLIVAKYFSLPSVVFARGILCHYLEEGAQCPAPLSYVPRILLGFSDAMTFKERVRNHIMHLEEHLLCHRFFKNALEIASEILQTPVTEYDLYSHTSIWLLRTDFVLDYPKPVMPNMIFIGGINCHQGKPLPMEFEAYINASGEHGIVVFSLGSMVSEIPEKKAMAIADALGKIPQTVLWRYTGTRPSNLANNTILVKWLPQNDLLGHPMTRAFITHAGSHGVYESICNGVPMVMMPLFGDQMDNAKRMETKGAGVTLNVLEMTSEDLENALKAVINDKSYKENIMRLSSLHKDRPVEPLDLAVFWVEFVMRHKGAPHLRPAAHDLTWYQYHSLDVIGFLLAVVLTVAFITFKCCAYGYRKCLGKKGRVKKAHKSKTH

[4] = single IV dose [14C] soticlestat 50 µg
[5] = with itraconazole relative to soticlestat alone
[6] = with rifampin relative to soticlestat alone

Row | Structure (SMILES) | inhibition of CYP3A (CYP3A [1]) | simulated AUC0‐inf relative to observed [2, 4] | simulated Cmax relative to observed [2, 4] | simulated AUC0‐inf relative to observed ([2]; single oral dose 300 mg) | simulated Cmax relative to observed ([2]; single oral dose 300 mg) | increase of soticlestat AUC0‐inf (CYP3A [3]; [5]) | increase of soticlestat Cmax (CYP3A [3]; [5]) | decrease of soticlestat AUC0‐inf (CYP3A [3]; [6]) | decrease of soticlestat Cmax (CYP3A [3]; [6]) | blood plasma ratio (in vitro) | increase of expression of UGT2B4 (UGT2B4) | increase of UGT1A9‐mediated propofol glucuronidation (UGT1A9)
1 | O=C(c1cccnc1-c1ccncc1)N1CCC(O)(Cc2ccccc2)CC1 [Soticlestat] | low double‐digit micromolar values | 0.90 fold | 1.51 fold | 0.88 fold | 0.78 fold | 24% | 17% | 84% | 87% | 0.687 | – | –
2 | CO[C@H]1/C=C/O[C@@]2(C)Oc3c(C)c(O)c4c(O)c(c(/C=N/N5CCN(C)CC5)c(O)c4c3C2=O)NC(=O)/C(C)=C\C=C\[C@H](C)[C@H](O)[C@@H](C)[C@@H](O)[C@@H](C)[C@H](OC(C)=O)[C@@H]1C [rifampin] | – | – | – | – | – | – | – | – | – | – | 1.89 fold | up to 1.7 fold
